Literature values in patent US20090233840A1, “Modified Dynorphin Expression in Animals and Identification of Compounds for Treatment of Obesity and Diabetes” (priority 2004, published 2009).

The chains behind the UniProt entries cited, without tags or fusion partners.
UniProt P35372, whole entry: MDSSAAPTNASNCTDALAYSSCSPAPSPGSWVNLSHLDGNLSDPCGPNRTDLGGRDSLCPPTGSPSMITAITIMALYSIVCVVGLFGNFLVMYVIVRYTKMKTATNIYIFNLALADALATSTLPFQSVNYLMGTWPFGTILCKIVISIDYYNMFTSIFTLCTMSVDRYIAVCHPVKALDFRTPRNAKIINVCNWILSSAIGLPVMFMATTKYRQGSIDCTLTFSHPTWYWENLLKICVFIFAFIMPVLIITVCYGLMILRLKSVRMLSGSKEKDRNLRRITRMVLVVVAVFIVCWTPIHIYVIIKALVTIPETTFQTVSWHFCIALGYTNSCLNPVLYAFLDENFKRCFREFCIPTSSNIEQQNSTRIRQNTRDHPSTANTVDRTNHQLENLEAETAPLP

Target: hMOR-1 (Homo sapiens, UniProt P35372)
Settings: MOR-1 receptor

Substance: dynorphin A-(1-8)
- affinity compared to dynorphin A: relatively higher affinity
